Experiment [1] concerns the target T1, pathological tau of Alzheimer's disease brain (PHF-tau) (human (endogenous in brain tissue), UniProt P10636).
T1 construct: human tau as it lies in aggregates of AD brain; A mixture of brain tau isoforms in aggregated form; also called PHFs; aggregated tau in neuropil threads and NFTs; source: endogenous, human AD brain: immunopurified PHF and sarkosyl-insoluble fraction of brain lysates (Western blot); formalin-fixed paraffin sections (immunohistochemistry); pooled brain homogenate (immunodepletion)
Nature of the experiment: immunostaining of cells or tissue; immunohistochemistry on 5 μm formalin-fixed paraffin sections of human brain, WITH heat pretreatment (10 mM sodium citrate pH 6.0, autoclave 20 min at 130 °C); primary antibody overnight at 4 °C (0.1 μg/ml in Fig. 3). The note with it: one partner purified.

For experiment [2], the target named is T2, physiological tau of control human brain (human (endogenous in brain tissue), UniProt P10636).
T2 construct: human tau in neurons of control brain tissue; source: endogenous, human control brain, formalin-fixed paraffin sections of the hippocampal region
The experiment is described as above. The note with it: one partner purified.

Experiment [3] deals with T3, pathological tau structures in other tauopathies (FTLD, Pick's disease, PSP, PART) (human (endogenous in brain tissue), UniProt P10636).
T3 construct: human tau in aggregates of tauopathy brains; also called pathological tau structures in all these diseases; source: endogenous, post-mortem human brain tissue of FTLD, Pick's disease, PSP and PART cases
The experiment is described as above. The note with it: one partner purified.

A further experiment deals with T4, tau peptide A7731 (Homo sapiens).
T4 construct: source: synthetic peptide (Pepscan BV or New England Peptide)
Kind of experiment: crystal structure; Fab (20 mM HEPES pH 7.5, 7.55 mM NaCl) incubated with 4 mM peptide on ice overnight; sitting drop vapor diffusion. As to conditions: both partners purified.

The target of a further experiment is T5, tau peptide A6940 (human, biotin).
T5 construct: tau, human, residues 42-103; numbers count on: 2N4R tau (tau441); also called residues 42-103; source: synthetic peptide
T5 chain: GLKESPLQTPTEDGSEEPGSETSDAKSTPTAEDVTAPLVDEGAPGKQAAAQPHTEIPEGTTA
Kind of experiment: BLI; Octet Red 384; biotinylated tau peptides immobilised on streptavidin biosensors; 100 nM antibody in solution; buffers of different ionic strength with 10% ForteBio kinetics buffer; qualitative association and dissociation curves. As to conditions: both partners purified. For orientation: In BLI a coated tip is dipped into the sample, and binding shifts an interference pattern.

A further experiment deals with T6, tau peptide A8119 (Homo sapiens).
T6 construct: source: synthetic peptide (Pepscan BV or New England Peptide)
T6 chain: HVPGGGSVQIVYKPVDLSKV
Kind of experiment: crystal structure; Fab (20 mM HEPES pH 7.5, 7.55 mM NaCl) incubated with 4 mM peptide on ice overnight; sitting drop vapor diffusion. The note with it: both partners purified.

The next experiment addresses T7, tau peptide A6897 (human, biotin).
T7 construct: numbers count on: 2N4R tau (tau441); source: synthetic peptide
Kind of experiment: BLI; Octet Red 384; biotinylated tau peptides immobilised on streptavidin biosensors; 100 nM antibody in solution; buffers of different ionic strength with 10% ForteBio kinetics buffer; qualitative association and dissociation curves. As to conditions: both partners purified.

The results in this text go back to PMC5984341 (Acta Neuropathologica Communications, 2018).

B1: dmCBTAU-28.1 (human IgG1), CBTAU-28.1 double mutant Ser32 to Arg / Glu35 to Lys (antibody, V domains shown)
VH: QVQLQQSGAEVKKPGESLKISCEASGYSFTNYWIGWVRQMPGKGLEWMGIIYPGDSDTRYSPPFQGQVTITADRSITTAYLEWSSLKASDTAMYYCARVGRPSKGGWFDPWGQGTLVTVSS
VL: DIQMTQSPDSLAVSLGERATINCESSQTLLYRSNKKNYLAWYQQKPGQPPKLLISWASTPESGVPDRFSGSGSGTSFTLTISSLQAEDVAVYYCQQYYNSPYTFGQGTRLEIK
In the case of B1, the binding result in experiment [1], in experiment [2] and in experiment [3] was “binds” in each case.

B2: dmCBTAU-28.1 Fab (Fab, V domains shown)
VH: QVQLQQSGAEVKKPGESLKISCEASGYSFTNYWIGWVRQMPGKGLEWMGIIYPGDSDTRYSPPFQGQVTITADRSITTAYLEWSSLKASDTAMYYCARVGRPSKGGWFDPWGQGTLVTVSS
VL: DIQMTQSPDSLAVSLGERATINCESSQTLLYRSNKKNYLAWYQQKPGQPPKLLISWASTPESGVPDRFSGSGSGTSFTLTISSLQAEDVAVYYCQQYYNSPYTFGQGTRLEIK
B2: the binding result with tau peptide A7731 is “binds”.

B3: dmCBTAU-28.1 (antibody, V domains shown)
VH: QVQLQQSGAEVKKPGESLKISCEASGYSFTNYWIGWVRQMPGKGLEWMGIIYPGDSDTRYSPPFQGQVTITADRSITTAYLEWSSLKASDTAMYYCARVGRPSKGGWFDPWGQGTLVTVSS
VL: DIQMTQSPDSLAVSLGERATINCESSQTLLYRSNKKNYLAWYQQKPGQPPKLLISWASTPESGVPDRFSGSGSGTSFTLTISSLQAEDVAVYYCQQYYNSPYTFGQGTRLEIK
Turning to B3, the binding result with tau peptide A6940 is reported as “binds”.

B4: dmCBTAU-27.1 (human IgG1), CBTAU-27.1 double mutant Ser27D to Tyr / Thr94 to Ile (antibody, V domains shown)
VH: QVQLVESGPEMRKPGESLKISCKTSGYIFSDYWTAWVRQLPGKGLQWMGIIYSGDSDTRYHPSVQGHVTMSTDSSLTTAYLQWSSLKASDTGIYYCARLDARVDAGWQLDSWGQGTLVTVSS
VL: IQLTQSPDSLAVSLGERATINCKSSQSVFYRDNNKNYLAWYQHKSGQPPKLLFFWASSRESGVSDRFSGSGSGTDFTLTIDNLQAEDVALYYCQHYFNIPHNFGQGTKLEIK
Regarding B4, the binding result in experiment [1], in experiment [2] and in experiment [3] was “binds” each time.

B5: dmCBTAU-27.1 Fab (Fab, V domains shown)
VH: QVQLVESGPEMRKPGESLKISCKTSGYIFSDYWTAWVRQLPGKGLQWMGIIYSGDSDTRYHPSVQGHVTMSTDSSLTTAYLQWSSLKASDTGIYYCARLDARVDAGWQLDSWGQGTLVTVSS
VL: IQLTQSPDSLAVSLGERATINCKSSQSVFYRDNNKNYLAWYQHKSGQPPKLLFFWASSRESGVSDRFSGSGSGTDFTLTIDNLQAEDVALYYCQHYFNIPHNFGQGTKLEIK
Consider B5, for which the binding result with tau peptide A8119 is “binds”.

B6: dmCBTAU-27.1 (antibody, V domains shown)
VH: QVQLVESGPEMRKPGESLKISCKTSGYIFSDYWTAWVRQLPGKGLQWMGIIYSGDSDTRYHPSVQGHVTMSTDSSLTTAYLQWSSLKASDTGIYYCARLDARVDAGWQLDSWGQGTLVTVSS
VL: IQLTQSPDSLAVSLGERATINCKSSQSVFYRDNNKNYLAWYQHKSGQPPKLLFFWASSRESGVSDRFSGSGSGTDFTLTIDNLQAEDVALYYCQHYFNIPHNFGQGTKLEIK
As to B6, the binding result in the experiment with tau peptide A6897 was “binds”.
